Test results from ChEMBL document CHEMBL3526124, “Optimized experimental design for the estimation of enzyme kinetic parameters: an experimental evaluation” (Drug Metab Dispos, 2012).

System: Liver microsome
Assay: Drug metabolism in human liver microsomes assessed as intrinsic clearance per mg protein by optimal design approach

CLH: 135 µL/min/g
SMILES: O=C(O)Cc1ccccc1Nc1c(Cl)cccc1Cl [DICLOFENAC]
